Measurements published in ChEMBL document CHEMBL2069172, “Transition state analogue inhibitors of human methylthioadenosine phosphorylase and bacterial methylthioadenosine/S-adenosylhomocysteine nucleosidase incorporating acyclic ribooxacarbenium ion mimics” (Bioorg Med Chem, 2012).

Assay: Inhibition of Escherichia coli MTAN assessed as reduction in methylthioadenosine phosphorolysis/hydrolysis

CSC[C@H]1CN(Cc2c[nH]c3c(N)ncnc23)C[C@@H]1O showed a Ki of 2 pM.
